“Also recorded” adds a separate entry of the source.
Key:
[1] = type: physicochemical
Text: Circular dichroism (“CD”) was used to study the secondary structure of peptides in solution as described previously (Golabek et al., “The Interaction Between Apolipoprotein E and Alzheimer's Amyloid β-peptide is Dependent on β-peptide Conformation,” J. Biol. Chem. 271:10602-10606 (1996); Soto et al., “Alzheimer's Soluble β-amyloid is Conformationally Modified by Apolipoproteins in vitro,” Neuroreport 7:721-725 (1996); which are hereby incorporated by reference in their entirety). Aliquots of HFIP treated peptides were diluted in 5 mmol/L Tris buffer (pH 7.0) to obtain a peptide concentration of 100 μmol/L, and were incubated at 37° C. CD was measured at indicated intervals with t=0 being immediately after the peptide was reconstituted. Measurements were on a Jasco J-720 spectropolarimeter (Easton, Md.), equipped with a model CTC-344 circular temperature control system (Neslab Inc., Newington, N.H.), at final protein concentration of 0.15 mg/ml in a cell with 0.1 cm path length. The spectra were recorded at 1 nm intervals over the wavelength range of 190-260 nm at 15° C. Results were expressed as molar ellipticity in units of deg-cm^2-dmol^−1, and the data were analyzed by the Lincomb, convex constraints and neural network algorithms to obtain percentages of different types of secondary structures using Softsec software (Softwood Inc., PA.) (Perczel et al., “Analysis of Circular Dichroism Spectrum of Proteins Using the Convex Constraint Algorithm,” Anal. Biochem. 203:83-93 (1992); Manavalan et al., “Variable Selection Method Improves the Prediction of Protein Secondary Structure from Circular Dichroism,” Anal. Biochem. 167:76-85 (1987); Toumadje et al., “Extending CD Spectra of Proteins to 168nm Improves the Analysis for Secondary Structures,” Anal. Biochem. 200:321-331 (1992); Sreerma et al., “A Self-consistent Method for the Analysis of Protein Secondary Structure from Circular Dichroism,” Anal. Biochem. 209:32-44 (1993); which are hereby incorporated by reference in their entirety). […]

Chains of the proteins cited; added tags and fusions are not shown. Residues count along the entry.
UniProt P02649, 19-317 C130R: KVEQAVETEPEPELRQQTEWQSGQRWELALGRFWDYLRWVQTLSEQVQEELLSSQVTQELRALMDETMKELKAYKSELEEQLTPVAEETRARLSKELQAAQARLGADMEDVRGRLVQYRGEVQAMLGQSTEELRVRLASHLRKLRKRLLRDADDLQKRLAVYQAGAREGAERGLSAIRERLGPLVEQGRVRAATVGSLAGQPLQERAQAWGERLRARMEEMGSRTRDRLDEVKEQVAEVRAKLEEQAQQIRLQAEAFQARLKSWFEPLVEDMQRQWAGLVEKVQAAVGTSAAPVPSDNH

[2] = Thioflavin-T assay of the peptides' own amyloid fibril formation; type: physicochemical; conditions: 100 μmol/L peptide, 37° C.
Text: The fibrillogenic potential of Aβ12-28 and Aβ12-28P was investigated using a Thioflavin-T assay according to previously published methods (Wisniewski et al., “Acceleration of Alzheimer's Fibril Formation by Apolipoprotein E in vitro,” Am. J. Pathol. 145:1030-1035 (1994); Castano et al., “Fibrillogenesis in Alzheimer's Disease of Amyloid Beta Peptides and Apolipoprotein E,” Biochem. J. 306:599-604 (1995); which are hereby incorporated by reference in their entirety). […] Aβ12-28 and Aβ12-28P used for these experiments were both synthesized from D-amino acids to avoid effect of different racemic conformers on the fibril formation. […] Samples containing 15 μg of incubated peptides were taken at indicated intervals and fluorescence was measured as previously described in a Perkin-Elmer LS-50B fluorescence spectrophotometer (Perkin Elmer Instruments, Shelton, Conn.) (Wisniewski et al., “Acceleration of Alzheimer's Fibril Formation by Apolipoprotein E in vitro,” Am. J. Pathol. 145:1030-1035 (1994); Golabek et al., “The Interaction Between Apolipoprotein E and Alzheimer's Amyloid β-peptide is Dependent on β-peptide Conformation,” J. Biol. Chem. 271:10602-10606 (1996); which are hereby incorporated by reference in their entirety). […]
None of the HFIP treated peptides were fibrillar at time=0 as assessed by Thioflavin-T assay.

apoE4 = target: T1, apoE4 (Homo sapiens, UniProt P02649, C130R); assay: Toxicity rescue: neutralizing apoE4's effect on Aβ1-42 neurotoxicity, MTT assay in SK-N-SH cells; type: cell-based; conditions: Aβ1-42 100 μmol/L, apoE4 0.5 μmol/L preincubated with 0.5 μmol/L peptide; two day p<0.05, 6 day p<0.01
T1 construct: made in house; host or cells: primary forebrain astrocytes of GFAP-human apoE4 transgenic mice
Experimental: (§1) In toxicity rescue experiments, Aβ12-28 or Aβ12-28P were used to neutralize apoE4's effect on Aβ1-42 neurotoxicity. Aβ12-28 or Aβ12-28P were preincubated with apoE4 in an equimolar concentration for 6 h at 37° C., then mixed with Aβ1-42, followed by addition to microtiter plates containing cells prepared as described above. The obtained results were compared to the viability of cells incubated with Aβ1-42 alone and Aβ1-42 with apoE4. Cells incubated with apoE alone, Aβ1-42+Aβ12-28 and Aβ1-42+Aβ12-28P, were used as additional controls. The final concentration of peptides was as follows: Aβ1-42 100 μmol/L, Aβ12-28 and Aβ12-28P 0.5 μmol/L, and apoE4 0.5 μmol/L. Two- and six-day experiments were performed and cell viability was assessed using the MTT assay. All experiments were run in triplicate. The results from cell culture neurotoxicity studies were evaluated by one-way analysis of variance, followed by a Dunnett's test as a post hoc analysis.
(§2) The viability of SK-N-SH cells incubated in the presence of apoE4 alone (0.5 μmol/L) was not reduced compared to the control group (only vehicle added).

Aβ1-42 = Aβ1-42 toxicity in SK-N-SH cells with peptide added without apoE, MTT assay; type: cell-based, human
Experimental: as §1, §2

[3] = CD immediately after reconstitution, 5 mmol/L Tris pH 7.0

β-sheet content ([1]; CD at time=0): 2%
random coil, share of the total protein structure [1, 3]: 57%
∝-helix, share of the total protein structure [1, 3]: 41%
SMILES: CC(=O)N[C@@H](C(=O)N[C@H](Cc1c[nH]cn1)C(=O)N[C@H](Cc1c[nH]cn1)C(=O)N[C@H](CCC(N)=O)C(=O)N[C@H](CCCCN)C(=O)N[C@H](CC(C)C)C(=O)N[C@@H](C(=O)N[C@H](Cc1ccccc1)C(=O)N[C@H](Cc1ccccc1)C(=O)N[C@H](C)C(=O)N[C@H](CCC(=O)O)C(=O)N[C@H](CC(=O)O)C(=O)N[C@@H](C(=O)NCC(=O)N[C@H](CO)C(=O)N[C@H](CC(N)=O)C(=O)N[C@H](CCCCN)C(N)=O)C(C)C)C(C)C)C(C)C [Aβ12-28, reference compound]
day when fluorescence levels reached a plateau [2]: 6 days
fibril formation (Thioflavin-T fluorescence) ([2]; up to 10 days): formed a small amount of fibrils; also recorded: modest ability
rescue of cell viability from apoE4-enhanced Aβ1-42 toxicity (apoE4): significant rescue of the cell viability; also recorded: could be neutralized
cell viability, Aβ1-42 incubated with peptide (Aβ1-42; 10 μmol/L Aβ1-42 with 10 μmol/L peptide): Much more striking improvement in cell viability
cell viability, peptide added to Aβ1-42 without apoE (Aβ1-42; Aβ1-42 100 μmol/L, peptide 0.5 μmol/L, time not stated): could not be demonstrated; also recorded: did not produced significant improvement in cell viability

Source: patent US7632816B2, “Treatment of Alzheimer amyloid deposition” (New York University, priority 2003, dated 2009)
